Data: publication PMC9127112, “Opening opportunities for Kd determination and screening of MHC peptide complexes” (Communications Biology, 2022)

Assays:
[1] = biological target: empty disulfide-stabilized HLA-A*02:01(Y84C/A139C) complex of heavy chain and beta-2 microglobulin (human); assay: native MS
[2] = biological target: empty disulfide-stabilized HLA-A*02:01(Y84C/A139C) complex of heavy chain and beta-2 microglobulin (human); assay: nanoscale differential scanning fluorimetry (nDSF, thermal stabilisation)
[3] = biological target: empty disulfide-stabilized HLA-A*02:01(Y84C/A139C) in complex with beta-2 microglobulin (human); assay: native MS
[4] = biological target: empty disulfide-stabilized HLA-A*02:01(Y84C/A139C) in complex with beta-2 microglobulin (human); assay: isothermal analysis of nanoscale differential scanning fluorimetry (iDSF)

Substance	percent of dsA2 as dsA2/pep (AUC) [1]	∆Tm [2]	Kd [3]	Kd [4]
Ac-NV9, NV9 with an acetylated N-terminus (peptide)	57%	7.5 K		
NV9 ([…]), A2 epitope from human cytomegalovirus pp65 (peptide)			60 nM	40 nM
NV9-NH2, NV9 with amidated C-terminus (peptide)			10000 nM	1 nM
